{"source": "paper PMC7144373", "about": "“Composition and Orientation of the Core Region of Novel HIV-1 Entry Inhibitors Influences Metabolic Stability” (Molecules, 2020)", "experiment": "Metabolic stability in human liver microsomes", "procedure": "Metabolic stability analysis was performed as outlined in Lu et al..\nPreparation of solutions. Test compound was weighed and dissolved in 100% DMSO to get 10 mM stock solution. The stock solution was diluted to 100 μM with mixture of acetonitrile and H2O (1:1). The final concentrations of DMSO and acetonitrile were equal to or less than 0.1%. […]\nMicrosomal incubation. Liver microsomes incubations were conducted in duplicate in 96-well plates. […] Reactions were terminated at various time points (0, 5, 10, 20, 40 min) by adding 150 µL of ice-cold methanol and acetonitrile (1:1, v/v) containing the internal standard.\nLC-MS/MS analysis: A Waters liquid chromatographic system was used. […] The flow rate was maintained at 0.6 mL/min. Detection was performed on an API4000 Q-Trap mass spectrometer equipped with TurboIonSpray (ESI) Interface (Applied Biosystems, Concord, Ontario, Canada). Analyst 1.5 software packages (Applied Biosystems) were used to control the LC-MS/MS system, and for data acquisition and processing.\nData analysis: The peak area ratio of a test compound to internal standard was plotted as a percentage of the relevant zero time point control (%remaining) for each reaction. The rate of metabolism (k) is the slope of the linear regression from log percentage remaining versus incubation time."}
{"compound": "C[C@]12CC[C@H]3[C@@H](CCC4=CC(=O)CC[C@@]43C)[C@@H]1CC[C@@H]2O", "note": "[Testosterone, reference compound]", "values": [{"measurement": "Eh (hepatic extraction ratio)", "setting": "(Clh/Q) × 100", "value": 83.19, "unit": "%"}, {"measurement": "Clint", "setting": "human, microsomes, pH 7.4", "value": 102.7, "unit": "µL/min/mg"}, {"measurement": "T1/2", "setting": "human, microsomes, pH 7.4", "value": 13.5, "unit": "min"}]}
